In patent US12533361B2, “Use of polaprezinc in preparing drug for treating castration-resistant prostate cancer” (Jiangnan University, priority 2021, dated 2026):

Tested on: AR
Experiment: Immunohistochemistry of AR in prostate tissue sections (Example 4)
Type: in vivo, mouse
Conditions: 30 days administration after relapse, Enza 10 mg/Kg, Pola 20 mg/Kg, combined 10 + 20 mg/Kg, NC group 94
Method: After the relapse of the CRPC caused by drug resistance occurred (the mice were 6 month old), the mice were randomly divided into a normal control group (always gavaged with a solvent), an Enza single group, a Pola single group, and an Enza and Pola combined group. The mice were correspondingly gavaged. The mice were gavaged with 10 mg/Kg of Enza each time in the Enza single group, 20 mg/Kg of Pola each time in the Pola single group, and 10 mg/Kg of Enza and 20 mg/Kg of Pola each time in the Enza and Pola combined group once every three days for a total of 30 days. The mice were sacrificed and their prostate cancers were photographed, weighed and subjected to immunohistochemistry.
2. Results of effects of Enza, Pola and combined use thereof on a mouse model of prostate cancer with overexpression of C-MYC after resistance generated by continuous administration of Enza are shown in FIGS. 4A-4C and FIG. 5A-5B.

SMILES: CNC(=O)c1ccc(N2C(=S)N(c3ccc(C#N)c(C(F)(F)F)c3)C(=O)C2(C)C)cc1F [Enza, enzalutamide]
- Expression amount of AR/%: 71.5%
